{"source": "patent US20040121316A1", "about": "(priority 2002, published 2004)", "biological_target": "T1, recombinant HIV-1 protease (Human immunodeficiency virus type 1 group M subtype B, UniProt P04585)", "T1 construct": "Enzyme: recombinant HIV-1 protease expressed in E.Coli; purchased Bachem California, Inc. H-9040; host or cells: E. coli", "assay": "biochemical", "note": "Like-named read-outs stand apart in the source and are kept apart here.", "data": [{"compound": "COc1ccc(S(=O)(=O)N(CC(C)C)CC(O)C(CC2=CCN(CP(=O)(O)O)CC2)NC(=O)OC2COC3OCCC23)cc1", "note": "(centres unmarked)", "values": [{"measurement": "Ki", "setting": "Ki", "value": "> 1", "unit": "nM"}]}, {"compound": "CCOP(=O)(CN1CC=C(CC(NC(=O)OC2COC3OCCC23)C(O)CN(CC(C)C)S(=O)(=O)c2ccc(OC)cc2)CC1)OCC", "note": "(centres unmarked)", "values": [{"measurement": "Ki", "value": "+ +"}]}, {"compound": "COc1ccc(S(=O)(=O)N(CC(C)C)CC(O)C(CC2=CCN(CCP(=O)(OC)OC)CC2)NC(=O)OC2COC3OCCC23)cc1", "note": "(centres unmarked)", "values": [{"measurement": "Ki", "setting": "Ki", "value": "0.1 to 1", "unit": "nM"}]}, {"compound": "COc1ccc(S(=O)(=O)N(CC(C)C)CC(O)C(CC2=CCN(CCP(=O)(O)O)CC2)NC(=O)OC2COC3OCCC23)cc1", "note": "(centres unmarked)", "values": [{"measurement": "Ki", "setting": "Ki", "value": "> 1", "unit": "nM"}]}, {"compound": "CCOP(=O)(CCC1=CCN(CC(NC(=O)OC2COC3OCCC23)C(O)CN(CC(C)C)S(=O)(=O)c2ccc(OC)cc2)CC1)OCC", "note": "(centres unmarked)", "values": [{"measurement": "Ki", "setting": "Ki", "value": "0.1 to 1", "unit": "nM"}]}, {"compound": "CCOP(=O)(Cc1ccc(NCC(NC(=O)OC2COC3OCCC23)C(O)CN(CC(C)C)S(=O)(=O)c2ccc(OC)cc2)cc1)OCC", "note": "(centres unmarked)", "values": [{"measurement": "Ki", "value": "+ +"}]}, {"compound": "COc1ccc(S(=O)(=O)N(CC(C)C)CC(O)C(CNc2ccc(CP(=O)(OCc3ccccc3)OCc3ccccc3)cc2)NC(=O)OC2COC3OCCC23)cc1", "note": "(centres unmarked)", "values": [{"measurement": "Ki", "value": "+ +"}]}, {"compound": "CCOC(=O)C(C)NP(=O)(Cc1ccc(NCC(NC(=O)OC2COC3OCCC23)C(O)CN(CC(C)C)S(=O)(=O)c2ccc(OC)cc2)cc1)NC(C)C(=O)OCC", "note": "(centres unmarked)", "values": [{"measurement": "Ki", "value": "+ +"}]}, {"compound": "CCOP(=O)(Cc1ccc(N(C)CC(NC(=O)OC2COC3OCCC23)C(O)CN(CC(C)C)S(=O)(=O)c2ccc(OC)cc2)cc1)OCC", "note": "(centres unmarked)", "values": [{"measurement": "Ki", "value": "+ +"}]}, {"compound": "CCOP(=O)(Cc1ccc2c(c1)CCN(CC(NC(=O)OC1COC3OCCC13)C(O)CN(CC(C)C)S(=O)(=O)c1ccc(OC)cc1)C2)OCC", "note": "(centres unmarked)", "values": [{"measurement": "Ki", "value": "+ +"}]}, {"compound": "CCOP(=O)(CNc1ccc(CC(NC(=O)OC2COC3OCCC23)C(O)CN(CC(C)C)S(=O)(=O)c2ccc(OC)cc2)cc1)OCC", "note": "(centres unmarked)", "values": [{"measurement": "Ki", "value": "+ + +"}]}, {"compound": "COc1ccc(S(=O)(=O)N(CC(C)C)CC(O)C(Cc2ccc(NCP(=O)(OCc3ccccc3)OCc3ccccc3)cc2)NC(=O)OC2COC3OCCC23)cc1", "note": "(centres unmarked)", "values": [{"measurement": "Ki", "value": "+ + +"}]}, {"compound": "COc1ccc(S(=O)(=O)N(CC(C)C)CC(O)C(Cc2ccc(NCCP(=O)(O)O)cc2)NC(=O)OC2COC3OCCC23)cc1", "note": "(centres unmarked)", "values": [{"measurement": "Ki", "value": "+ +"}]}, {"compound": "COc1ccc(S(=O)(=O)N(CC(C)C)CC(O)C(Cc2ccc(C)cc2)NC(=O)OC2COC3OCCC23)cc1", "note": "(centres unmarked)", "values": [{"measurement": "Ki (pM)", "value": "+ +"}]}, {"compound": "COc1ccc(S(=O)(=O)N(CC(C)C)CC(O)C(Cc2ccc(OCc3ccccc3)cc2)NC(=O)OC2COC3OCCC23)cc1", "note": "(centres unmarked)", "values": [{"measurement": "Ki (pM)", "value": "+ + +"}]}, {"compound": "COc1ccc(S(=O)(=O)N(CC2CCN(C=O)CC2)CC(O)C(Cc2ccc(OCP(=O)(O)O)cc2)NC(=O)OC2COC3OCCC23)cc1", "note": "(centres unmarked)", "values": [{"measurement": "Ki (pM)", "value": "+ +"}]}, {"compound": "CCOP(=O)(COc1ccc(CC(NC(=O)OC2COC3OCCC23)C(O)CN(CC2CCN(C=O)CC2)S(=O)(=O)c2ccc(OC)cc2)cc1)OCC", "note": "(centres unmarked)", "values": [{"measurement": "Ki (pM)", "value": "+ +"}]}, {"compound": "COc1ccc(S(=O)(=O)N(Cc2ccccc2)CC(O)C(Cc2ccccc2)NC(=O)OC2COC3OCCC23)cc1", "note": "(centres unmarked)", "values": [{"measurement": "Ki (pM)", "value": "+ +"}]}, {"compound": "COc1ccc(S(=O)(=O)N(CC(O)C(Cc2ccccc2)NC(=O)OC2COC3OCCC23)CC(C)(C)CO)cc1", "note": "(centres unmarked)", "values": [{"measurement": "Ki (pM)", "value": "+ + +"}]}, {"compound": "CC(C)CN(CC(O)C(Cc1ccc(OCP(=O)(O)O)cc1)NC(=O)OC1COC2OCCC12)S(=O)(=O)c1ccc(N)cc1", "note": "(centres unmarked)", "values": [{"measurement": "Ki (pM)", "value": "+ +"}]}, {"compound": "CCOP(=O)(COc1ccc(CC(NC(=O)OC2COC3OCCC23)C(O)CN(CC(C)C)S(=O)(=O)c2ccc(N)cc2)cc1)OCC", "note": "(centres unmarked)", "values": [{"measurement": "Ki (pM)", "value": "+ +"}]}, {"compound": "CCNc1ccc(S(=O)(=O)N(CC(C)C)CC(O)C(Cc2ccc(OCP(=O)(OCC)OCC)cc2)NC(=O)OC2COC3OCCC23)cc1", "note": "(centres unmarked)", "values": [{"measurement": "Ki (pM)", "value": "+ +"}]}, {"compound": "CC(C)CN(CC(O)C(Cc1ccc(OCP(=O)(OCc2ccccc2)OCc2ccccc2)cc1)NC(=O)OC1COC2OCCC12)S(=O)(=O)c1ccc(N)cc1", "note": "(centres unmarked)", "values": [{"measurement": "Ki (pM)", "value": "+ +"}]}, {"compound": "CC(C)CN(CC(O)C(Cc1ccc(OCP(=O)(O)O)cc1)NC(=O)OC1COC2OCCC12)S(=O)(=O)c1cccc(N)c1", "note": "(centres unmarked)", "values": [{"measurement": "Ki (pM)", "value": "+ +"}]}, {"compound": "CCOP(=O)(COc1ccc(CC(NC(=O)OC2COC3OCCC23)C(O)CN(CC(C)C)S(=O)(=O)c2cccc(N)c2)cc1)OCC", "note": "(centres unmarked)", "values": [{"measurement": "Ki (pM)", "value": "+ +"}]}, {"compound": "CC(C)CN(CC(O)C(Cc1ccc(OCP(=O)(OCc2ccccc2)OCc2ccccc2)cc1)NC(=O)OC1COC2OCCC12)S(=O)(=O)c1cccc(N)c1", "note": "(centres unmarked)", "values": [{"measurement": "Ki (pM)", "value": "+ +"}]}, {"compound": "CC(C)CN(CC(O)C(Cc1ccc(OCP(=O)(O)O)cc1)NC(=O)OC1COC2OCCC12)S(=O)(=O)c1ccccc1", "note": "(centres unmarked)", "values": [{"measurement": "Ki (pM)", "value": "+ +"}]}, {"compound": "CC(C)CN(CC(O)C(Cc1ccc(OCP(=O)(OCc2ccccc2)OCc2ccccc2)cc1)NC(=O)OC1COC2OCCC12)S(=O)(=O)c1ccccc1", "note": "(centres unmarked)", "values": [{"measurement": "Ki (pM)", "value": "+ +"}]}, {"compound": "CC(C)CN(CC(O)C(Cc1ccc(OCP(=O)(O)O)cc1)NC(=O)OC1COC2OCCC12)S(=O)(=O)c1ccc(F)cc1", "note": "(centres unmarked)", "values": [{"measurement": "Ki (pM)", "value": "+ +"}]}, {"compound": "CC(C)CN(CC(O)C(Cc1ccc(OCP(=O)(OCc2ccccc2)OCc2ccccc2)cc1)NC(=O)OC1COC2OCCC12)S(=O)(=O)c1ccc(F)cc1", "note": "(centres unmarked)", "values": [{"measurement": "Ki (pM)", "value": "+ +"}]}, {"compound": "CC(C)CN(CC(O)C(Cc1ccc(OCP(=O)(O)O)cc1)NC(=O)OC1COC2OCCC12)S(=O)(=O)c1ccc(C(F)(F)F)cc1", "note": "(centres unmarked)", "values": [{"measurement": "Ki (pM)", "value": "+ + +"}]}, {"compound": "CC(C)CN(CC(O)C(Cc1ccc(OCP(=O)(OCc2ccccc2)OCc2ccccc2)cc1)NC(=O)OC1COC2OCCC12)S(=O)(=O)c1ccc(C(F)(F)F)cc1", "note": "(centres unmarked)", "values": [{"measurement": "Ki (pM)", "value": "+ +"}]}, {"compound": "CC(C)CN(CC(O)C(Cc1ccc(OCP(=O)(O)O)cc1)NC(=O)OC1COC2OCCC12)S(=O)(=O)c1ccc(OC(F)(F)F)cc1", "note": "(centres unmarked)", "values": [{"measurement": "Ki (pM)", "value": "+ +"}]}, {"compound": "CC(C)CN(CC(O)C(Cc1ccc(OCP(=O)(OCc2ccccc2)OCc2ccccc2)cc1)NC(=O)OC1COC2OCCC12)S(=O)(=O)c1ccc(OC(F)(F)F)cc1", "note": "(centres unmarked)", "values": [{"measurement": "Ki (pM)", "value": "+ +"}]}, {"compound": "CC(C)CN(CC(O)C(Cc1ccc(OCP(=O)(OCc2ccccc2)OCc2ccccc2)cc1)NC(=O)OC1COC2OCCC12)S(=O)(=O)c1ccc(C#N)cc1", "note": "(centres unmarked)", "values": [{"measurement": "Ki (pM)", "value": "+ +"}]}, {"compound": "CC(C)CN(CC(O)C(Cc1ccc(OCP(=O)(OCc2ccccc2)OCc2ccccc2)cc1)NC(=O)OC1COC2OCCC12)S(=O)(=O)c1ccc(CO)cc1", "note": "(centres unmarked)", "values": [{"measurement": "Ki (pM)", "value": "+ +"}]}, {"compound": "CC(C)CN(CC(O)C(Cc1ccccc1)NC(=O)OC1COC2OCCC12)S(=O)(=O)c1ccc(O)cc1", "note": "(centres unmarked)", "values": [{"measurement": "Ki (pM)", "value": "+ + +"}]}, {"compound": "CC(C)CN(CC(O)C(Cc1ccccc1)NC(=O)OC1COC2OCCC12)S(=O)(=O)c1ccc(OCP(=O)(O)O)cc1", "note": "(centres unmarked)", "values": [{"measurement": "Ki (pM)", "value": "+ + +"}]}, {"compound": "CCOP(=O)(COc1ccc(S(=O)(=O)N(CC(C)C)CC(O)C(Cc2ccccc2)NC(=O)OC2COC3OCCC23)cc1)OCC", "note": "(centres unmarked)", "values": [{"measurement": "Ki (pM)", "value": "+ +"}]}, {"compound": "CC(C)CN(CC(O)C(Cc1ccccc1)NC(=O)OC1COC2OCCC12)S(=O)(=O)c1cccc(O)c1", "note": "(centres unmarked)", "values": [{"measurement": "Ki (pM)", "value": "+ + +"}]}, {"compound": "COc1cccc(S(=O)(=O)N(CC(C)C)CC(O)C(Cc2ccccc2)NC(=O)OC2COC3OCCC23)c1", "note": "(centres unmarked)", "values": [{"measurement": "Ki (pM)", "value": "+ + +"}]}, {"compound": "CC(C)CN(CC(O)C(Cc1ccccc1)NC(=O)OC1COC2OCCC12)S(=O)(=O)c1cccc(OCP(=O)(O)O)c1", "note": "(centres unmarked)", "values": [{"measurement": "Ki (pM)", "value": "+ +"}]}, {"compound": "CCOP(=O)(COc1cccc(S(=O)(=O)N(CC(C)C)CC(O)C(Cc2ccccc2)NC(=O)OC2COC3OCCC23)c1)OCC", "note": "(centres unmarked)", "values": [{"measurement": "Ki (pM)", "value": "+ + +"}]}, {"compound": "CC(C)CN(CC(O)C(Cc1ccccc1)NC(=O)OC1COC2OCCC12)S(=O)(=O)c1cccc(OCP(=O)(OCc2ccccc2)OCc2ccccc2)c1", "note": "(centres unmarked)", "values": [{"measurement": "Ki (pM)", "value": "+ +"}]}, {"compound": "COc1ccc(S(=O)(=O)N(CC(C)C)CC(O)C(Cc2ccccc2)NC(=O)OC2COC3OCCC23)cc1O", "note": "(centres unmarked)", "values": [{"measurement": "Ki (pM)", "value": "+ + +"}]}, {"compound": "COc1ccc(S(=O)(=O)N(CC(C)C)CC(O)C(Cc2ccccc2)NC(=O)OC2COC3OCCC23)cc1OCP(=O)(O)O", "note": "(centres unmarked)", "values": [{"measurement": "Ki (pM)", "value": "+ + +"}]}, {"compound": "O=C1N(Cc2ccccc2)C(Cc2ccccc2)C(O)C(O)C(Cc2ccc(OCP(=O)(OCc3ccccc3)OCc3ccccc3)cc2)N1Cc1ccccc1", "note": "(centres unmarked)", "values": [{"measurement": "IC50", "value": 7.4, "unit": "nM"}, {"measurement": "Ki", "setting": "Enzymatic assay Ki (nM)", "value": 0.125, "unit": "nM"}]}, {"compound": "O=C1N(Cc2ccccc2)C(Cc2ccccc2)C(O)C(O)C(Cc2ccc(OCP(=O)(O)O)cc2)N1Cc1ccccc1", "note": "(centres unmarked)", "values": [{"measurement": "IC50", "value": 9.7, "unit": "nM"}, {"measurement": "Ki", "setting": "Enzymatic assay Ki (nM)", "value": 0.386, "unit": "nM"}]}]}
